Data from US7348140B1, “Clinical indications for genotyping polymorphic variants of G-protein coupled receptors” (Acadia Pharmaceuticals, Inc., priority 2001, dated 2008).

Sequences of proteins named here, by UniProt entry; tags and fusion partners are left off.
UniProt P30556, whole entry F204S, looked up: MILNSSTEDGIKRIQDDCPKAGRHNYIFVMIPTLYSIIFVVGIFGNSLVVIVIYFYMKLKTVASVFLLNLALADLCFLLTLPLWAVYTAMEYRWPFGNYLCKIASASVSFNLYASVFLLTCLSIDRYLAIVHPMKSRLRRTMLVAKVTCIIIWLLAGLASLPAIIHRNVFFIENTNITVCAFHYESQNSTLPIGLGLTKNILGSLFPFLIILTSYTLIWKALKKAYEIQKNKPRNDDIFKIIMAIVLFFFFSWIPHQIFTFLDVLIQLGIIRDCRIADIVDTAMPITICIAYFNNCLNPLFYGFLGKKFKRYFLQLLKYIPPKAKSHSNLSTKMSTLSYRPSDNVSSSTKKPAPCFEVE
UniProt P30556, whole entry C289W, looked up: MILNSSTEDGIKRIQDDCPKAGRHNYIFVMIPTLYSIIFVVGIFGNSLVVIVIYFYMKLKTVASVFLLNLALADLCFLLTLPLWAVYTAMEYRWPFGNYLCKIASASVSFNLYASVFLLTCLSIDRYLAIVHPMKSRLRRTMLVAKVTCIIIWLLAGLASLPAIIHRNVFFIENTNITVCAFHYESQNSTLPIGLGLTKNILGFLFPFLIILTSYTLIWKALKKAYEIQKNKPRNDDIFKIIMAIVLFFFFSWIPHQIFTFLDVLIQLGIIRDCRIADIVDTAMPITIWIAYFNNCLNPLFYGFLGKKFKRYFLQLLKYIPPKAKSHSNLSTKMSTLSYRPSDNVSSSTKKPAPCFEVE

Assays:
[1] = biological target: angiotensin II Type 1 receptor F204S (Serine 204) (Homo sapiens, UniProt P30556, F204S)
[2] = biological target: angiotensin II Type 1 receptor C289W (Tryptophan 289) (Homo sapiens, UniProt P30556, C289W)
[3] = biological target: cholecystokinin B receptor (Leucine 224) (Homo sapiens, UniProt P32239, E288K); format: cell-based
[4] = biological target: T1, cholecystokinin B receptor L224Q (Glutamine 224) (Homo sapiens, UniProt P32239, E288K/L224Q); assay: R-SAT functional assay, cholecystokinin B receptor L224Q; format: cell-based
T1 construct: expressed in transfected cells; host or cells: NIH-3T3
T1 sequence (P32239 1-447 L224Q/E288K): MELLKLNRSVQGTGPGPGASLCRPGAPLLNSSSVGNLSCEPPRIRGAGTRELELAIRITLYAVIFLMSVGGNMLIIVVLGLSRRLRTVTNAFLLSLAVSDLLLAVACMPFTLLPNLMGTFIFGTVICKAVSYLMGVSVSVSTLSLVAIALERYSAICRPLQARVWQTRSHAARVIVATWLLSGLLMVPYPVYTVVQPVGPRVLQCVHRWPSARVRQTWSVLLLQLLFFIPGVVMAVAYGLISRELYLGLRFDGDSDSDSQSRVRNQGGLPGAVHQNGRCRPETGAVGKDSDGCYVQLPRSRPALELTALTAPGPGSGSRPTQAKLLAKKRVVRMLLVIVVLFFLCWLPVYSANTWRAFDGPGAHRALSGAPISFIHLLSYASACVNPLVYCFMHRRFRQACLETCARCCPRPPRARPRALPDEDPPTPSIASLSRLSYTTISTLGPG

For Angiotensin 2, which FOLD [1] is on record?
The FOLD was 63 fold.

And the FOLD [2]?
Its FOLD is 13 fold.

For CCK-4, which “Ave −Log EC50” value [3] is on record?
Its value is 7.10.

And the “Ave −Log EC50” value [4]?
The value was 8.18.
